# Biological target: Sodium-dependent serotonin transporter (Rattus norvegicus, UniProt P31652)
# The chains behind the UniProt entries cited, without tags or fusion partners.
# UniProt P31652, whole entry: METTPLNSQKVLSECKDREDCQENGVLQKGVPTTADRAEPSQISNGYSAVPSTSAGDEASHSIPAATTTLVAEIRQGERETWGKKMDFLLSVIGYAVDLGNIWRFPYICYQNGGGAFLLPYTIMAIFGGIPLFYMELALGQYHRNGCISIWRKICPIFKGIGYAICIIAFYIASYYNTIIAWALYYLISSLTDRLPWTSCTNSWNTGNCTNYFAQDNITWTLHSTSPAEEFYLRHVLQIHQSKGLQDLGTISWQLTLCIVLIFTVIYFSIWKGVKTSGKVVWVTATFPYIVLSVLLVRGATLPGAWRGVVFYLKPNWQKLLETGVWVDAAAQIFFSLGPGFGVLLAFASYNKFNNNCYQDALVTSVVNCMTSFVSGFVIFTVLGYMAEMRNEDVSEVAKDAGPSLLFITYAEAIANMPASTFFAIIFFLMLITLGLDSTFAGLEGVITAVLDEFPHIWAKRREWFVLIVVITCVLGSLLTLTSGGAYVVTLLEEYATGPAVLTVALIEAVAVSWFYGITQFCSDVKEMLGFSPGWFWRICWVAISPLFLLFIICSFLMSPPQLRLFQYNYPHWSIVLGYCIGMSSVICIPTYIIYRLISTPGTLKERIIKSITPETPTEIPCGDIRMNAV
compound,measurement,value
Fc1ccc([C@@H]2CCNC[C@H]2COc2ccc3c(c2)OCO3)cc1 [PAROXETINE],Ki,0.8 nM
